Data as given in patent publication US20170312293A1, “ANTIMICROBIAL WATER DISPERSIBLE COMPOSITION COMPRISING ZINC PYRITHIONE” (KOLON LIFE SCIENCE, INC., priority 2014, published 2017).

Test: Stability of zinc pyrithione aqueous dispersion: layer separation degree via centrifugation, naked eye
Format: physicochemical
Details: zinc pyrithione aqueous dispersion including the antiseptic, layer separation degree (supernatant height / total height) via centrifugation
Description: First, a zinc pyrithione aqueous dispersion including an antiseptic which was identified to have antiseptic activity was prepared and then stored at room temperature (R.T.), at a temperature ranging from 10° C. to 20° C., or 60° C., and variation in physical properties related to stability and dispersibility were checked.
Variation in physical properties was determined depending on whether or not assay, viscosity, pH and particle size were changed, and variation in dispersibility was determined by checking layer separation degree using centrifugation and measuring dispersion stability using Turbiscan for detecting particle size variation and phase separation.
Stability was evaluated by checking a layer separation degree (production of supernatant) using centrifugation by the naked eye and was divided into grades based on the proportion of the height of the layer-separated supernatant with respect to the total height of the sample. With respect to the grades, layer separation degree (production of supernatant) of less than 5% was regarded as “high”, layer separation degree of 10% or less was regarded as “medium-high”, layer separation degree of 15% or less was regarded as “medium”, layer separation degree of 20% or less was regarded as “medium-low” and layer separation degree of higher than 20% was regarded as “low”.

Substance: Ethylhexyl glycerin
- Stability of zinc pyrithione aqueous dispersion: Medium-high (layer separation degree of 10% or less was regarded as “medium-high”)
